Assay results reported in patent US20040081973A1, “Cloning and characterization of a novel BK channel isoform highly expressed in glioma cells” (priority 2002, published 2004).

Protein sequences, listed by entry. Tags and fused reporters are not part of them. Residues count along the entry.
UniProt Q12791, 66-1239 isoform Q12791-7 limits assumed: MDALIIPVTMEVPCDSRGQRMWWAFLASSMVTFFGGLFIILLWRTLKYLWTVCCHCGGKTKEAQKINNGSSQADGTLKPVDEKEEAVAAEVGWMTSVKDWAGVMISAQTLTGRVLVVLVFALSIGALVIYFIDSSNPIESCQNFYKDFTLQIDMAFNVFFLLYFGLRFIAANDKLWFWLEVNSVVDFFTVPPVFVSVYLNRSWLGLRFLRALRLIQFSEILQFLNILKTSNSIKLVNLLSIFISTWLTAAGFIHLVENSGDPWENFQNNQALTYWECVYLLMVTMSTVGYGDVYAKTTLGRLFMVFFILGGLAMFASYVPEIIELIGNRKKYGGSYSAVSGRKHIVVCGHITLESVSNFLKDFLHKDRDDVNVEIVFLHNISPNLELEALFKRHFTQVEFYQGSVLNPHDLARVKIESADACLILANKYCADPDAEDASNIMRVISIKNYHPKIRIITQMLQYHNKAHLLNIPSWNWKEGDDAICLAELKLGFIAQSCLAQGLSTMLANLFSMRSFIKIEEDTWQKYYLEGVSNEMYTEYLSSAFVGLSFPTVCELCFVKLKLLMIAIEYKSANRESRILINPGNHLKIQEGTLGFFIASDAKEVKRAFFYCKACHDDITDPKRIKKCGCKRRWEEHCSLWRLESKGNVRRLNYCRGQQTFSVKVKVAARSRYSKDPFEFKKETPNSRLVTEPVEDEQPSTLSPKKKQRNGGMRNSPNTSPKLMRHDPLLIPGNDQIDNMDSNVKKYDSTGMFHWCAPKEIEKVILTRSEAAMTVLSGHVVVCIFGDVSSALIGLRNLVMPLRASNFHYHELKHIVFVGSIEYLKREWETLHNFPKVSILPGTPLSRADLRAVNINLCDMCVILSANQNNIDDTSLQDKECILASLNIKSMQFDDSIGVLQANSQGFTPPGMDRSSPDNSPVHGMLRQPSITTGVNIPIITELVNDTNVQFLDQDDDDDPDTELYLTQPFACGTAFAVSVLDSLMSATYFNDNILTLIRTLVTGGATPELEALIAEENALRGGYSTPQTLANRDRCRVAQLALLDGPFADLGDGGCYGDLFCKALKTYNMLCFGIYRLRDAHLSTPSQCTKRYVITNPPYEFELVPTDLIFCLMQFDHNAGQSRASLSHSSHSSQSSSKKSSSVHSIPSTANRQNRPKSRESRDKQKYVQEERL

Legend:
gBK = gBK (Homo sapiens, UniProt Q12791); test: Two-electrode voltage-clamp of gBK injected Xenopus oocytes, IbTX block; type: cell-based; set-up: gBK expression as a full-length protein in Xenopus oocytes was examined; expressed in transfected cells; host or cells: Xenopus laevis oocytes injected with in vitro transcribed gBK cRNA
Description: (§1) FIG. 6 illustrates gBK forms functional, IbTX-sensitive BK channels in Xenopus oocytes. gBK injected oocytes express large voltage-activated outward currents. Current recordings were obtained by double-electrode voltage-clamp in OR2 medium containing 92.5 mM NaCl, 2.5 mM KCl, 1 mM CaCl2, 1 mM MgCl2 and 5 mM HEPES, pH 7.5, with 3 M KCl containing microelectrodes. Oocytes were held at −20 mV and stepped to test potentials between 0 and +180 in 20 mV increments. […] Greater than 60% of total currents were inhibited by 100 nM IbTX.
FIG. 7 illustrates the dose-response of IbTX inhibition of gBK currents in gBK injected oocytes. […] The data were least-squares fitted to a modified Hill equation of the form: I/Imax=1/(1+([IbTX]/IC50)^n), where I is the IbTX sensitive current, Imax is the maximum current of the fit, IC50 is the half-maximal inhibitory concentration of IbTX, and n is the Hill coefficient. The dose-responses were obtained after applying IbTX up to 20 min until it reached steady states and the continuous line was obtained from average data of three oocytes.
Stage VI oocytes from female Xenopus laevis (Xenopus I, Ann Arbor, Mich.) were harvested and incubated at 16° C. before injection. […] Functional BK channel expression was observed within 2 days and increasing current levels could be measured up to 4-7 days after injection. […]
The ability of gBK protein expressed in Xenopus oocytes to form functional BK channels was examined by two-electrode voltage-clamp. […] Two days after cRNA injection, large amplitude voltage-activated outward currents were recorded (FIG. 6, right panel), which were not detected in uninjected oocytes (FIG. 6, left panel). […]
A complete dose-response curve for inhibition of gBK currents by IbTX was established from three oocytes by voltage-clamp recordings. […] The IC50 and Hill coefficient of IbTX inhibition of gBK currents were determined by least-squares fit of the I/Imax-[IbTX] relation of IbTX sensitive currents to a Hill equation. […]

U-251MG glioma cells = U-251MG glioma cells (Soroceanu et al., 1999); cited from earlier work
[1] = test system: currents in uninjected oocytes; test: Two-electrode voltage-clamp of uninjected Xenopus oocytes; type: cell-based, Xenopus laevis; details: 100 nM IbTX
Description: as §1
The ability of gBK protein expressed in Xenopus oocytes to form functional BK channels was examined by two-electrode voltage-clamp. Two days after cRNA injection, the oocytes were placed in a 100 μl chamber with continuous perfusion of OR2 solution. The oocytes were voltage-clamped at −20 mV and then jumped to 10 voltage steps in 20 mV increments (0˜+180 mV) using a GeneClamp 500 amplifier (Axon Instruments, Foster City, Calif.). The current signal was low-pass-filtered at 2 kHz and digitized at 10 kHz. […] Two days after cRNA injection, large amplitude voltage-activated outward currents were recorded (FIG. 6, right panel), which were not detected in uninjected oocytes (FIG. 6, left panel). […]

U251-MG glioma cells = details: 10 nM; U251-MG glioma cells (Soroceanu et al., 1999); cited from earlier work

Q: Which inhibition at 0.1 µM (gBK; 100 nM IbTX, gBK injected oocytes, read-out: Inhibition of total currents) does the source give for CSCC[C@@H]1NC(=O)[C@@H]2CSSC[C@H](NC(=O)[C@H](CC(=O)O)NC(=O)[C@@H](NC(=O)[C@H](CC(=O)O)NC(=O)[C@@H](NC(=O)[C@H](Cc3ccccc3)NC(=O)[C@@H]3CCC(=O)N3)[C@@H](C)O)C(C)C)C(=O)N[C@@H](CO)C(=O)N[C@@H](C(C)C)C(=O)N[C@@H](CO)C(=O)N[C@@H](CCCCN)C(=O)N[C@@H](CCC(=O)O)C(=O)N[C@H]3CSSC[C@H](NC(=O)[C@H](CCCCN)NC(=O)[C@H](CCCCN)NC(=O)CNC1=O)C(=O)N[C@@H](CCCNC(=N)N)C(=O)N[C@H](C(=O)N[C@@H](Cc1ccc(O)cc1)C(=O)N[C@@H](CCC(N)=O)C(=O)O)CSSC[C@H](NC(=O)[C@H](C(C)C)NC(=O)[C@H](CO)NC(=O)[C@H](Cc1c[nH]c4ccccc14)NC3=O)C(=O)N[C@@H](CCCCN)C(=O)N[C@@H](CC(=O)O)C(=O)N[C@@H](CC(C)C)C(=O)N[C@@H](Cc1ccccc1)C(=O)NCC(=O)N[C@@H](C(C)C)C(=O)N[C@@H](CC(=O)O)C(=O)N[C@@H](CCCNC(=N)N)C(=O)NCC(=O)N[C@@H](CCCCN)C(=O)N2 [IbTX, iberiotoxin] here?
A: > 60%

Q: What about the “Hill coefficient of IbTX block of gBK currents” value (gBK; ±S.D., n=3 oocytes) of the same compound?
A: 0.76±0.10

Q: What about the IC50 (gBK; ±S.D., n=3 oocytes, steady-state currents at +160 mV) of the same compound?
A: 5.7 ± 1.23 nM

Q: And the “Effect on migration in vitro” value (U-251MG glioma cells)?
A: inhibit migration

Q: What about the “Effect on currents in uninjected oocytes” value [1] of the same compound?
A: did not affect currents

Q: And the “Effect on in vitro invasion” value (U251-MG glioma cells)?
A: reduce the in vitro invasion
